# Tested on: Calu-3 cells
# Assay: Cellular tolerability test: TEER of Calu-3 monolayers
# Assay type: cell-based, human
# Details: for TEER after 24 hours Mean [%]: after 24 h in cell culture following incubation; for TEER after 2 hours Mean [%]: in KRB
# From the text: In addition to the physicochemical properties of drug formulations and their stability, either as solution or dispersed systems, it is helpful to investigate the cellular tolerability of such drug formulations in a cell culture test system. For this purpose the bronchial cell line Calu-3 was used as an in vitro model for toxicity assessment. Calu-3 represents a human submucosal adenocarcinoma cell line that forms tight, polarized and well differentiated monolayers with apical microvilli and tight junctional complexes. In contrast to other cell lines, Calu-3 cells generate extracellular mucus. […] In addition, it has been shown that loss of monolayer integrity is paralleled by a decrease in TEER to values below 600Ω·cm^2 and an increase in permeability. […] Since toxicity is paralleled by a loss of the monolayer integrity, a decrease in TEER of more than 50% is indicative for the toxicity of a test compound. […] The Calu-3 cell tests offer the possibility to investigate potential effects of the drug substance as well as the influence of excipients or formulation constituents.
# TEER was determined in physiological Krebs Ringer buffer (KRB) for two hours after the application of the different formulations or excipients. A decrease of the measured resistance indicated an affection of intact epithelial cell-cell contacts (tight junctions), which is an extremely sensitive parameter to determine toxic effects. To assess whether such cell damage was reversible, the cells were incubated for 24 h in cell culture subsequently to the incubation with the test formulations.
substance,measurement,setting,value
Natrium EDTA,TEER after 24 hours Mean [%],conc. (undiluted),42%
same,TEER after 2 hours Mean [%],conc. (undiluted; stock concentration given with each formulation name),14%
same,TEER after 24 hours Mean [%],dilution 1:5,56%
same,TEER after 2 hours Mean [%],dilution 1:5,42%
same,TEER after 24 hours Mean [%],dilution 1:10,47%
same,TEER after 2 hours Mean [%],dilution 1:10,46%

# — patent US20090025713A1, “Nebulised Antibiotics for Inhalation Therapy” (priority 2006, published 2009)
